Our source for the IC50 values is ChEMBL document CHEMBL5150013, “The Repertoire of Small-Molecule PET Probes for Neuroinflammation Imaging: Challenges and Opportunities beyond TSPO” (J Med Chem, 2021).

The chains behind the UniProt entries cited, without tags or fusion partners.
UniProt P21453, whole entry: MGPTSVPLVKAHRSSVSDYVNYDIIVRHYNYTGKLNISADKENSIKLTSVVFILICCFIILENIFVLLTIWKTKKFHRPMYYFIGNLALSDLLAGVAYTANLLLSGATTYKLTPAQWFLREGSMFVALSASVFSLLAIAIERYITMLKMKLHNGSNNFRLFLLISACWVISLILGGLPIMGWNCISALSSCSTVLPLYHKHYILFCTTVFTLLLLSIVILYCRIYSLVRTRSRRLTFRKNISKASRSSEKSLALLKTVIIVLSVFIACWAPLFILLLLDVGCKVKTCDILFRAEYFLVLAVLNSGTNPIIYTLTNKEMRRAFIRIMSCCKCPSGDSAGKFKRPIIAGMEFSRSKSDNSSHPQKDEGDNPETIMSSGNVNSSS

This test concerns the target Sphingosine 1-phosphate receptor 1 (Homo sapiens, UniProt P21453).

Usually IC50 stands for the concentration that gives 50% inhibition. A high value points to lower potency. In turn, `OCc1ccc(-c2noc(-c3ccc(OCC[18F])c(C(F)(F)F)c3)n2)cc1` had an IC50 of 6.7 nM.
